Results on 1 substance are retold here after patent US20070073039A1, “Peptides that inhibit viral infections” (priority 2005, published 2007).

This experiment deals with JFH-1 virus. Kind of experiment: Interferon treatment of Huh-7.5.1 cells before JFH-1 infection. The experiment is classed as cell-based, Hepatitis C virus (JFH-1). Particulars: 5, 50 and 500 IU/mL; Huh-7.5.1, MOI 0.3; 3 days. As for the experimental part: FIG. 8 graphically illustrates inhibition of HCV infection by interferons. […] The viral inoculum was removed 4 hours later and the cells were further cultured with interferon for 3 days. At that time cells were harvested, RNA was isolated and analyzed by real-time RT-PCR to determine the intracellular HCV RNA levels. Bars represent intracellular HCV RNA levels expressed as a % of the levels obtained in the control infections.
Interferon treatment. […] The inoculum was removed after 3 hours of incubation at 37° C., and fresh DMEM supplemented with the indicated doses of IFN was added to the cells. The efficiency of the infection was monitored 72 hours later by quantitative RT-PCR.

As to “IFNα-2a: human IFNα-2a (PBL Biomedical Lab, Piscataway, N.J.)”, the “Inhibition of HCV infection by interferons” value was “efficiently inhibit HCV infection”.
